Laboratory results as given in patent publication US9067935B2 (Janssen Pharmaceutica, NV, priority 2010, dated 2015).

Chains of the proteins cited; added tags and fusions are not shown. Residues count along the entry.
UniProt Q1A7N1, 1-1104: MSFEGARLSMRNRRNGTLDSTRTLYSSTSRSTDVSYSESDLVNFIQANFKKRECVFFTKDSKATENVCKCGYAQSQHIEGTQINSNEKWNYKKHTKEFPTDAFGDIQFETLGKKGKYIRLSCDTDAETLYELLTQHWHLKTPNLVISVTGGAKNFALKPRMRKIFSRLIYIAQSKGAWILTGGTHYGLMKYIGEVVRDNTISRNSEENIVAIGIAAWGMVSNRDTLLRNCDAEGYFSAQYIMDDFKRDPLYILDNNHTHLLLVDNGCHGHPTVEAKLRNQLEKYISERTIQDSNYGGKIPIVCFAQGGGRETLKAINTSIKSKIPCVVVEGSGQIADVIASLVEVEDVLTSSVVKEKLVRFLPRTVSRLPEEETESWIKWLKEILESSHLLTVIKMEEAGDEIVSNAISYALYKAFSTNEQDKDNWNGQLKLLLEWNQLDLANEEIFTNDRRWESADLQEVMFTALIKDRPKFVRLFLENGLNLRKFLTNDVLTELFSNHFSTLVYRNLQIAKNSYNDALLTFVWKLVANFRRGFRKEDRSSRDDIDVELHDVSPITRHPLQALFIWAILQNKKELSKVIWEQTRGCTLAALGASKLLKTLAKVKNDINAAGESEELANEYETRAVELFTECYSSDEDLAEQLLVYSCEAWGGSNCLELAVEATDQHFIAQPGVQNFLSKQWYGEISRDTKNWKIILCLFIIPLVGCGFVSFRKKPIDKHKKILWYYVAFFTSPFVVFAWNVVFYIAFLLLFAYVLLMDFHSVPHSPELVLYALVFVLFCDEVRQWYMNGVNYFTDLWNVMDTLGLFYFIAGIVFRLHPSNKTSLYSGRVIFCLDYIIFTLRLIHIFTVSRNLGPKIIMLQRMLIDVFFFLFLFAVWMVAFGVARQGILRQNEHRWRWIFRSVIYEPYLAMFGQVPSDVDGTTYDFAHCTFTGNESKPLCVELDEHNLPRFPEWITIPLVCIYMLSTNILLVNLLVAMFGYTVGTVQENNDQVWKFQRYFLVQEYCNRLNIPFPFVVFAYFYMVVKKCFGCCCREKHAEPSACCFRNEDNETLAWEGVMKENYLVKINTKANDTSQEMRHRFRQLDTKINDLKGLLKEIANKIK

Molecular target: canine TRPM8 (Canis lupus familiaris, UniProt Q1A7N1)
Assay: In Vitro Canine TRPM8 Functional Assay (intracellular Ca2+ fluorescence, icilin challenge)
Conditions: HEK293 cells stably expressing canine TRPM8

Structure (SMILES): Cc1cccc2nc(N(Cc3ccc(OC(F)(F)F)cc3)S(=O)(=O)c3ccccc3)c(C)n12
- % Inh (%) @ 0.2 μM (@ 0.2 μM): 100%
- IC50 (read-out: TRPM8 IC50, icilin at ~80% maximal response): 10.4 nM
